ChEMBL document CHEMBL1129937, “Synthesis and dihydrofolate reductase inhibitory activities of 2,4-diamino-5-deaza and 2,4-diamino-5,10-dideaza lipophilic antifolates” (J Med Chem, 1997)
pIC50: −log10 of the molar value.

Biological target: T1, Dihydrofolate reductase (Pneumocystis carinii, UniProt P16184)
T1 sequence (P16184 whole entry): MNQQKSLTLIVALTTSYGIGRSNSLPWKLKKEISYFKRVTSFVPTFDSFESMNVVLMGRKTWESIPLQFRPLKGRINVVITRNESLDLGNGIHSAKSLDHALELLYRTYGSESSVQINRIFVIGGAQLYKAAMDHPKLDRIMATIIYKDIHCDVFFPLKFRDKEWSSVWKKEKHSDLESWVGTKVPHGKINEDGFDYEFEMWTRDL

SMILES	pIC50
COc1cc(CCc2cnc3nc(N)nc(N)c3c2)cc(OC)c1OC	5.30
COc1ccc(CCC2CNc3nc(N)nc(N)c3C2)cc1OC (configuration not stated)	5.11
